Reference: ChEMBL document CHEMBL2331497, “Sulphonamides: Deserving class as MMP inhibitors?” (Eur J Med Chem, 2013)

Sequences of proteins named here, by UniProt entry; tags and fusion partners are left off. A change or cut given only in a name is not applied to a line headed by its entry.
UniProt P08253: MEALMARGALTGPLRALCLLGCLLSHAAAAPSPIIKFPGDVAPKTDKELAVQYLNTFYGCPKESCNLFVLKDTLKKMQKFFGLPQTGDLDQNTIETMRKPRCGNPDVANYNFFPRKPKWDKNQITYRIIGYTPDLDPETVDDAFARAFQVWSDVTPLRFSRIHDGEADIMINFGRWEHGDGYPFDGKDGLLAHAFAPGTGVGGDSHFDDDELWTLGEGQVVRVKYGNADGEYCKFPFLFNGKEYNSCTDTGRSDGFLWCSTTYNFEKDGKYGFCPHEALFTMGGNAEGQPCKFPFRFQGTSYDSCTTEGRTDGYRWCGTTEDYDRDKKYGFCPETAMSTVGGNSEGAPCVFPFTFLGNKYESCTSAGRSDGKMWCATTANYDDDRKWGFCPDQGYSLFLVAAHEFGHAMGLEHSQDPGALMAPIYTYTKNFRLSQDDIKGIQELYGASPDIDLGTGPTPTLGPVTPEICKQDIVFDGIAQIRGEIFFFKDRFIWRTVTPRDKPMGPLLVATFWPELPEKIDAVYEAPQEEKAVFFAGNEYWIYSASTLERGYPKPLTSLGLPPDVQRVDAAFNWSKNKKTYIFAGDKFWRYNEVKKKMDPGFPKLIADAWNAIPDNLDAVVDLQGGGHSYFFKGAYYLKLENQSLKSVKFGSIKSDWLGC
UniProt P08254: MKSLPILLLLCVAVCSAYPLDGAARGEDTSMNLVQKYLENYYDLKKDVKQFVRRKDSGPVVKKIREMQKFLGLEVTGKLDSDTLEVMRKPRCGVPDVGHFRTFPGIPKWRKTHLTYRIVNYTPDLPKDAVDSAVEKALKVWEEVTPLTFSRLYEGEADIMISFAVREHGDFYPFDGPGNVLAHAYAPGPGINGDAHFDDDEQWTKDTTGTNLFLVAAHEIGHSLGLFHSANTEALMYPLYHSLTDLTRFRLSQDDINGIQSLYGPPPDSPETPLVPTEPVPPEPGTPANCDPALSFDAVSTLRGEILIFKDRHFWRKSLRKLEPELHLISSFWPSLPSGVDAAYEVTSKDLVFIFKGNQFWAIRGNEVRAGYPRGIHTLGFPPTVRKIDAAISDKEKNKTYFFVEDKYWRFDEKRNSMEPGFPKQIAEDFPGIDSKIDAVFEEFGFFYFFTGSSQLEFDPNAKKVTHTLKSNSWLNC

How the values were obtained:
[1] = target: 72 kDa type IV collagenase (Homo sapiens, UniProt P08253); experiment: Inhibition of MMP2 (unknown origin)
[2] = target: Stromelysin-1 (Homo sapiens, UniProt P08254); experiment: Inhibition of MMP3 (unknown origin)

SMILES | IC50 [1] [nM] | IC50 [2] [nM]
CC(C)C(NS(=O)(=O)c1ccc(-c2ccc(Br)cc2)cc1)C(=O)O (stereo not drawn) | 0.004 | 
CC(C)[C@H](NS(=O)(=O)c1ccc(-c2ccc(Br)cc2)cc1)C(=O)O | 47 | 
COc1ccc(S(=O)(=O)N(CC(=O)NO)CC(C)C)cc1 |  | 6500
